Measured values reported in patent US4204879A, “Amino acid salts of anionic dyestuffs which have high solubility in organic solvents” (Williams (Hounslow) Limited, priority 1976, dated 1980).

Test: Maximum concentration of dye giving a solution stable for 24 hours at room temperature (Tables 2 and 3)
Format: physicochemical
Protocol: The solubility values given in these Tables are the maximum concentration of dye in grams/liter giving a solution stable for 24 hours at room temperature.

[1] = Table 2, 24 hours, room temperature, salts of 1:2 chromium complex of 2-amino-4-nitrophenol→3-methyl-1-phenyl-5-pyrazolone

Substance	Solubility in Acetone [1] [g.1^-1]	Solubility in Ethanol [1] [g.1^-1]	Solubility in Ethyl Acetate [1] [g.1^-1]	Solubility in Acetone (acetone, 24 h) [g.1^-1]	Solubility in Ethanol (ethanol, 24 h) [g.1^-1]	Solubility in Ethyl Acetate (ethyl acetate, 24 h) [g.1^-1]
N,N-di(2-ethylhexyl)glycine	> 100	100	50	–	–	–
N-(iso-tridecyl)glycine	350	350	250	–	–	–
aniline	–	< 5	–	–	–	–
di-(2-ethylhexyl) amine	–	–	–	> 100	20	< 5
